Reference: patent US6884577B2, “Methods for screening compounds for estrogenic activity” (The Regents of the University of California, priority 1993, dated 2005)

Test system: ER at classical ERE, ERC1 cells
Experiment: Estrogenic activity screen: CAT reporter gene linked to a classical ERE in ERC1 cells
Format: cell-based, human
Settings: dose response 0-100 μM

SMILES: Oc1ccc(/C=C/c2ccc(F)cc2)c(Cl)c1
- concentration of saturation / maximum activity: 50 µM
